The record followed here is ChEMBL document CHEMBL1134604, “2-Alkynyl-8-aryl-9-methyladenines as novel adenosine receptor antagonists: their synthesis and structure-activity relationships toward hepatic glucose production induced via agonism of the A(2B) receptor” (J Med Chem, 2001).

pIC50: −log10 of the molar value.

By pIC50 is commonly meant the IC50 on a negative log10 scale, so that one unit is a factor of ten. A lower pIC50 goes with a high IC50.

This assay addresses T1, Adenosine receptor A2b (Rattus norvegicus, UniProt P29276).
T1 sequence (P29276 whole entry): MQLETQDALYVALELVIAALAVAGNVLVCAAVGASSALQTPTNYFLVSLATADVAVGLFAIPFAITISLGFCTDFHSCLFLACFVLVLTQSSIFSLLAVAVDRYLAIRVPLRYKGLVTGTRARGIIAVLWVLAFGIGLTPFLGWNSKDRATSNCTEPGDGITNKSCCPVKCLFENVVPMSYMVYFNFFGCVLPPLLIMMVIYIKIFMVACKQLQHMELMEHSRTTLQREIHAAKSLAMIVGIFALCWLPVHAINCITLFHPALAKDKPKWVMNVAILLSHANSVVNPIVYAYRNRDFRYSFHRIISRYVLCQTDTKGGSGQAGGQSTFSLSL
Put plainly: Inhibitory activity on N-ethylcarboxamidoadenosine (NECA)-induced glucose production in primary cultured rat hepatocytes. The class given is functional, cell-based, Hepatocyte.

`CCCn1c(=O)c2c(nc(/C=C/c3ccc(OC)c(OC)c3)n2C)n(CCC)c1=O` gave a pIC50 of less than 5.00.
